The chains behind the UniProt entries cited, without tags or fusion partners. Where a name states a change or a piece, a line headed by the entry shows the natural chain unless it says otherwise.
UniProt O00418: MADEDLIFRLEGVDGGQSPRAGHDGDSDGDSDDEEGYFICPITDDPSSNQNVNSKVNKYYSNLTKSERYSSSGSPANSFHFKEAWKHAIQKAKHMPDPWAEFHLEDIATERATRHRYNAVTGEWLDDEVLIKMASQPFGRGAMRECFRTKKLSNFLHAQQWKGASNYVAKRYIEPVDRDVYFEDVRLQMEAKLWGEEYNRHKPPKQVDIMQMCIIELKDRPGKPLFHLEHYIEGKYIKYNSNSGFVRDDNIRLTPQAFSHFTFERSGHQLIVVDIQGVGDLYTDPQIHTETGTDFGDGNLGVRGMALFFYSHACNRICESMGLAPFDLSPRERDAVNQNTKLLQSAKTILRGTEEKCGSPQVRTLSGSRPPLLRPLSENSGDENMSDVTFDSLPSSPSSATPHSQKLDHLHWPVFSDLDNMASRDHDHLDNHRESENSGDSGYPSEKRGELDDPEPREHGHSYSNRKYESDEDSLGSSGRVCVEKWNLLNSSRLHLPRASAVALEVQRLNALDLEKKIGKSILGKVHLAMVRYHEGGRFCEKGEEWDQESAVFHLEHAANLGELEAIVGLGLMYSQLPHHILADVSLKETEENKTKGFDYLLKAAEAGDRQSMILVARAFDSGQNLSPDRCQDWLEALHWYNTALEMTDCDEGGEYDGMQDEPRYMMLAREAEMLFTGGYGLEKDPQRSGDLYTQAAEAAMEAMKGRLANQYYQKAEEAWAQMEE
UniProt O14920: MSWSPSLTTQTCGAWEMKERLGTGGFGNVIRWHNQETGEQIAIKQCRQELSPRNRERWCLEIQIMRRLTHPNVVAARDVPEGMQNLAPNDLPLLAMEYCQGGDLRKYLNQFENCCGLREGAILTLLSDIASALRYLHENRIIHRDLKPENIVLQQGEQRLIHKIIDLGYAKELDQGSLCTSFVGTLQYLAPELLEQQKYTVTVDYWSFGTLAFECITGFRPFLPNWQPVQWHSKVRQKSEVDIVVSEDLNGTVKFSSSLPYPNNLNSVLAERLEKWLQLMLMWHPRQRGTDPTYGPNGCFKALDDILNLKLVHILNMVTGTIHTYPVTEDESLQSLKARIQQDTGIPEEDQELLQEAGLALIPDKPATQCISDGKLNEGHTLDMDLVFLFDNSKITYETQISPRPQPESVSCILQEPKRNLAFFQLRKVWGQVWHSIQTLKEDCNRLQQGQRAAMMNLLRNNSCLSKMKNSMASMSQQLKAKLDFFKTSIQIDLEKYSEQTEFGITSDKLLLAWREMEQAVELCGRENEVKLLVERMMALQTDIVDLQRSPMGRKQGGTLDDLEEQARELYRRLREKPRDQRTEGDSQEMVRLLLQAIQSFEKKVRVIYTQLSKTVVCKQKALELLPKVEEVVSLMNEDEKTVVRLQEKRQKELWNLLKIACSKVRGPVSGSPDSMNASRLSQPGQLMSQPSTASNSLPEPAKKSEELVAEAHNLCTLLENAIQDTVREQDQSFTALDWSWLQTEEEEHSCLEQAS
UniProt P53355: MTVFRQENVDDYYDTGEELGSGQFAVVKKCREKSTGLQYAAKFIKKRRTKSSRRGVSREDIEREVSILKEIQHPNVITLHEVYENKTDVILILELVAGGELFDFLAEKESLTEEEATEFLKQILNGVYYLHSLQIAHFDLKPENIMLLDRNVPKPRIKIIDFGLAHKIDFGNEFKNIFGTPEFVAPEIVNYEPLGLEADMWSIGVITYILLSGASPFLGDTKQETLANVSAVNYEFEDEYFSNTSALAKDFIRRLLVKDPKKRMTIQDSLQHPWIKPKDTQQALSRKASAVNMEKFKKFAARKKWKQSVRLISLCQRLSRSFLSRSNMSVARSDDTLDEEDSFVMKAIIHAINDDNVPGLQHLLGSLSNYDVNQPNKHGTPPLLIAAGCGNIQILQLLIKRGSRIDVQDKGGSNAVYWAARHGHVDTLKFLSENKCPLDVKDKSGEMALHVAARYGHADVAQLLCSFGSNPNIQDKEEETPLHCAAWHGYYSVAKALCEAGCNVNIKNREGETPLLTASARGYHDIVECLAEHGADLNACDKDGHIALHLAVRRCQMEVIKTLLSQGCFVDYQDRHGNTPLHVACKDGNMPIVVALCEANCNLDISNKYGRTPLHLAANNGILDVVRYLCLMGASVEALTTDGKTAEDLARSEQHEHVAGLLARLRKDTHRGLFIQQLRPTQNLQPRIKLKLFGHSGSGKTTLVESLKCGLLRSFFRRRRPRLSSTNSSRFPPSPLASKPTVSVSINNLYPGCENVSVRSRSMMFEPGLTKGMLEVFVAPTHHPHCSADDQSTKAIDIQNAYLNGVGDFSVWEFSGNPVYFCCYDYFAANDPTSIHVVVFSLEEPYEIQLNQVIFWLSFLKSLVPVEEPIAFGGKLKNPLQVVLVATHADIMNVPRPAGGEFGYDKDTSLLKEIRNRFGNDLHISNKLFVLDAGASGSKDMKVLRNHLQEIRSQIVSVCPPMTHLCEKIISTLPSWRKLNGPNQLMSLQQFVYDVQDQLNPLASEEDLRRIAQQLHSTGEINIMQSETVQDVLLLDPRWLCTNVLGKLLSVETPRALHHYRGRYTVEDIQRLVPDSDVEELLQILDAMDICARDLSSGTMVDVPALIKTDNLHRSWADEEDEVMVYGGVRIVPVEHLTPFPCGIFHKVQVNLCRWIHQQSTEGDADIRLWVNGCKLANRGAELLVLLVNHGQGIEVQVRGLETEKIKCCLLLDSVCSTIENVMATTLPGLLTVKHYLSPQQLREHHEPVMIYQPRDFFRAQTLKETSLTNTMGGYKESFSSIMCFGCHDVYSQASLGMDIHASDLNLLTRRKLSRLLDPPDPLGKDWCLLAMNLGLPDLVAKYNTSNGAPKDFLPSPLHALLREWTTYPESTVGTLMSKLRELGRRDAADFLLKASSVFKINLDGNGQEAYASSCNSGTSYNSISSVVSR
UniProt Q9H4B4: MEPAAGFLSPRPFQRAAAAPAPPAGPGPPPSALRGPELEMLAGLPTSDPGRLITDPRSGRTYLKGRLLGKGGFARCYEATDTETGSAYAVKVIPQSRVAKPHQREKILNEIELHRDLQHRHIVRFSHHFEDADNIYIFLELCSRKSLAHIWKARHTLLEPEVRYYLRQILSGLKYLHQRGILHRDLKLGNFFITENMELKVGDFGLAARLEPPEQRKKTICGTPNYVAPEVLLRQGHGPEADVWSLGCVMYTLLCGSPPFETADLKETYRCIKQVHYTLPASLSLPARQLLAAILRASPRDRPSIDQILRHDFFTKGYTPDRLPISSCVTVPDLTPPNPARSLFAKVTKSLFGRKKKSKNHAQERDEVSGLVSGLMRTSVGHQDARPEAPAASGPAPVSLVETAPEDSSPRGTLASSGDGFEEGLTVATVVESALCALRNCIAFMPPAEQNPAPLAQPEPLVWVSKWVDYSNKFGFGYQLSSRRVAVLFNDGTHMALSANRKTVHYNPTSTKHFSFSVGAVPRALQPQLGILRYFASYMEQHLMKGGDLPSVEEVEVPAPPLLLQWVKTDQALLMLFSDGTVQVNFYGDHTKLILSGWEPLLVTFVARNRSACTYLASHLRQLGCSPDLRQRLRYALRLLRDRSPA
UniProt Q9NYY3: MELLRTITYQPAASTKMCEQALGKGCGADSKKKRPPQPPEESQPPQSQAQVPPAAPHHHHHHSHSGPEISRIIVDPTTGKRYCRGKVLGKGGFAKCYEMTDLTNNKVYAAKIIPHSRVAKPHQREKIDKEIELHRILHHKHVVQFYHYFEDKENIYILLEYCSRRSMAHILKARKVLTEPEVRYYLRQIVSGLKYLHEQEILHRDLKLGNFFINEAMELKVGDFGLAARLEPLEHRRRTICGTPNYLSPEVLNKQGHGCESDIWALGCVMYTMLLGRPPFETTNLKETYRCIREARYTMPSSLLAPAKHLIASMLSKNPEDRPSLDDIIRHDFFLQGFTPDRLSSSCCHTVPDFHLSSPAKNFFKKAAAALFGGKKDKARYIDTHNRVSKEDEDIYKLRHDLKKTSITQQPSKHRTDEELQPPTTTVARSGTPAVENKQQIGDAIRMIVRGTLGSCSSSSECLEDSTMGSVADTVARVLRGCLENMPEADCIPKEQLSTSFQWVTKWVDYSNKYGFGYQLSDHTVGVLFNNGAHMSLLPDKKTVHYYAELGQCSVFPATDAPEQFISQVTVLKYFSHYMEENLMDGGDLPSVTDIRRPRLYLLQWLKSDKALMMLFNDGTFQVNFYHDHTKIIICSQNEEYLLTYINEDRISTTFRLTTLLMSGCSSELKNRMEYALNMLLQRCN
UniProt Q9P0L2: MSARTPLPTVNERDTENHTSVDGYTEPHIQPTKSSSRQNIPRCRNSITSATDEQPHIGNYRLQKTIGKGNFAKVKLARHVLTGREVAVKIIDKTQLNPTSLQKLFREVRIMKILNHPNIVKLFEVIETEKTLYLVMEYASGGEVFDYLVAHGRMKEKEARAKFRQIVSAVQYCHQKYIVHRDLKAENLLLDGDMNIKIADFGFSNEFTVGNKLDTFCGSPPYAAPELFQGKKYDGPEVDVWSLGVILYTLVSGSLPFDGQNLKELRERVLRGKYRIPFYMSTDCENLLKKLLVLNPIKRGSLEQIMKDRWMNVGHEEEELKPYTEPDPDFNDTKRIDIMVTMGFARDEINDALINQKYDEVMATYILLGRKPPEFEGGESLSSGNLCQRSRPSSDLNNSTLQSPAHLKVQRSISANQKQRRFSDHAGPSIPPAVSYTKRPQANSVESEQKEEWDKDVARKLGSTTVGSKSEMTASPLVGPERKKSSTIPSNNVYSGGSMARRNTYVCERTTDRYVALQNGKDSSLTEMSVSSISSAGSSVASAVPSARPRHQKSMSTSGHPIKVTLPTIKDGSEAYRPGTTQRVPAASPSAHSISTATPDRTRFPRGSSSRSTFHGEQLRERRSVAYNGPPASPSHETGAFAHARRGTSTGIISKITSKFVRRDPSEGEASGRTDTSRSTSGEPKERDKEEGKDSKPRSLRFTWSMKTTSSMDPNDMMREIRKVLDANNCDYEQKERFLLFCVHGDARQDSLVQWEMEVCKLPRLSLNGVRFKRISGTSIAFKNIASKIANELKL

According to patent US20140072613A1, “Compositions and Methods for Treating Cutaneous Scarring” (priority 2012, published 2014):

What was measured:
Assay type in all cases: biochemical
[1] = target: T1, 266 human kinases (Homo sapiens, UniProt O00141); details: SGK(h); 100 μM
T1 sequence (O00141 1-431): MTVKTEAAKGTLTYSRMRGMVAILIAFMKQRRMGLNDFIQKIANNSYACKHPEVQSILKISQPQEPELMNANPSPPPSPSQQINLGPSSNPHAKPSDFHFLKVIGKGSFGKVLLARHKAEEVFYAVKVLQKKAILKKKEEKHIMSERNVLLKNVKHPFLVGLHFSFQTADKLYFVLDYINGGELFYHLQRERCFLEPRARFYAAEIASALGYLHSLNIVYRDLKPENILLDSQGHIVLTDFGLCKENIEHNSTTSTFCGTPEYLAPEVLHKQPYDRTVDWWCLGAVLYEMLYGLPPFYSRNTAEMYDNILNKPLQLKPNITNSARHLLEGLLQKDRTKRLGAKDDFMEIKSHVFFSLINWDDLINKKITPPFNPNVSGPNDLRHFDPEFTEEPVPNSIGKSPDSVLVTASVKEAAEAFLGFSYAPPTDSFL
Source text: (§1) Specifically, in these assays, a positively charged substrate is phosphorylated with a radiolabeled phosphate group from an ATP if the kinase is not inhibited by an inhibitor peptide. The positively charged substrate then is attracted to a negatively charged filter membrane, quantified with a scintillation counter, and compared to a 100% activity control.

[2] = target: 266 human kinases (Homo sapiens, UniProt O00418); details: eEF-2K(h); 100 μM
Source text: as §1

[3] = target: 266 human kinases (Homo sapiens, UniProt O14920); details: IKKβ(h); 100 μM
Source text: as §1

[4] = target: 266 human kinases (Homo sapiens, UniProt P00519, M351T); details: Abl(M351T)(h); 100 μM
Source text: as §1

[5] = target: 266 human kinases (Homo sapiens, UniProt P00519, Q252H); details: Abl(Q252H)(h); 100 μM
Source text: as §1

[6] = target: 266 human kinases (Homo sapiens, UniProt P00519, Y253F); details: Abl(Y253F)(h); 100 μM
Source text: as §1

[7] = target: 266 human kinases (Homo sapiens, UniProt P00533, T790M); details: EGFR(T790M)(h); 100 μM
Source text: as §1

[8] = target: 266 human kinases (Homo sapiens, UniProt P06213); details: IR(h), activated; 100 μM
Source text: as §1

[9] = target: 266 human kinases (Homo sapiens, UniProt P07949, V804M); details: Ret(V804M)(h); 100 μM
Source text: as §1

[10] = target: T2, 266 human kinases (Homo sapiens, UniProt P21709); details: EphA1(h); 100 μM
T2 sequence (P21709 26-976): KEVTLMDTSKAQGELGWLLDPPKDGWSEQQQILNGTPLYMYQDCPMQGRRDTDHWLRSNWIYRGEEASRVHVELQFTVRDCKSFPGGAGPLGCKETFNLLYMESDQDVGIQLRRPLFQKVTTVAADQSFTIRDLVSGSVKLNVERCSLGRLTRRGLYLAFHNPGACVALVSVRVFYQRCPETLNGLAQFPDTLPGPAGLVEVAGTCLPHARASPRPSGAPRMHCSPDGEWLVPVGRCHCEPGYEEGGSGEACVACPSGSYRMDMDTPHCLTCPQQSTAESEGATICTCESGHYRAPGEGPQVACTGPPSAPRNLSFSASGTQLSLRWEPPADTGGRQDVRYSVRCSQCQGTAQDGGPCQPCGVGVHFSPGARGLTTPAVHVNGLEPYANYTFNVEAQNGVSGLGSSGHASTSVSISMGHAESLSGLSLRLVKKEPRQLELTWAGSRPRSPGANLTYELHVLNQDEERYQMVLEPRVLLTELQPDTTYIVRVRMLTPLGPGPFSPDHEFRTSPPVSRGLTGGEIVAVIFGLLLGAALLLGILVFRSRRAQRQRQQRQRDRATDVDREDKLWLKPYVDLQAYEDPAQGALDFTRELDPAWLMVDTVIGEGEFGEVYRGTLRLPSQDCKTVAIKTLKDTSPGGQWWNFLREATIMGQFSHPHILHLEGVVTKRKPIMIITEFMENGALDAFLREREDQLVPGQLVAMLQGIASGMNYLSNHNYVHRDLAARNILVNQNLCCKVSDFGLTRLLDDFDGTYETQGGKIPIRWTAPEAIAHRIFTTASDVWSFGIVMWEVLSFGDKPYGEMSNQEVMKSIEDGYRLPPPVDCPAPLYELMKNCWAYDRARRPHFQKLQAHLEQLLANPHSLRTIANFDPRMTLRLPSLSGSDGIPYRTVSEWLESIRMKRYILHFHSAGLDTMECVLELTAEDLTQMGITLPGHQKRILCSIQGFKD
Source text: as §1

[11] = target: 266 human kinases (Homo sapiens, UniProt P21802, N549H); details: FGFR2(N549H)(h); 100 μM
Source text: as §1

[12] = target: 266 human kinases (Homo sapiens, UniProt P36888, D835Y); details: Flt3(D835Y)(h); 100 μM
Source text: as §1

[13] = target: 266 human kinases (Homo sapiens, UniProt P45984); details: JNK2α2(h); 100 μM
Source text: as §1

[14] = target: 266 human kinases (Homo sapiens, UniProt P53355); details: DAPK1(h); 100 μM
Source text: as §1

[15] = target: 266 human kinases (Homo sapiens, UniProt Q5VT25); details: MRCKα(h); 100 μM
Source text: as §1

[16] = target: 266 human kinases (Homo sapiens, UniProt Q9H4B4); details: Plk3(h); 100 μM
Source text: as §1

[17] = target: 266 human kinases (Homo sapiens, UniProt Q9NYY3); details: Snk(h); 100 μM
Source text: as §1

[18] = target: 266 human kinases (Homo sapiens, UniProt Q9P0L2); details: MARK1(h); 100 μM
Source text: as §1

YARAAARQARAKALNRQLGVA (mammal) [MMI-0200]
% activity [1]: 115% | % activity [2]: 136% | % activity [3]: 109% | % activity [4]: 119% | % activity [5]: 107% | % activity [6]: 102% | % activity [7]: 113% | % activity [8]: 105% | % activity [9]: 105% | % activity [10]: 136% | % activity [11]: 104% | % activity [12]: 115% | % activity [13]: 109% | % activity [14]: 113% | % activity [15]: 103% | % activity [16]: 107% | % activity [17]: 109% | % activity [18]: 102%
